The record followed here is PubChem BioAssay AID624101 (Broad Institute, 2012).

Protein sequences, listed by entry. Tags and fused reporters are not part of them.
UniProt O75874, whole entry, looked up: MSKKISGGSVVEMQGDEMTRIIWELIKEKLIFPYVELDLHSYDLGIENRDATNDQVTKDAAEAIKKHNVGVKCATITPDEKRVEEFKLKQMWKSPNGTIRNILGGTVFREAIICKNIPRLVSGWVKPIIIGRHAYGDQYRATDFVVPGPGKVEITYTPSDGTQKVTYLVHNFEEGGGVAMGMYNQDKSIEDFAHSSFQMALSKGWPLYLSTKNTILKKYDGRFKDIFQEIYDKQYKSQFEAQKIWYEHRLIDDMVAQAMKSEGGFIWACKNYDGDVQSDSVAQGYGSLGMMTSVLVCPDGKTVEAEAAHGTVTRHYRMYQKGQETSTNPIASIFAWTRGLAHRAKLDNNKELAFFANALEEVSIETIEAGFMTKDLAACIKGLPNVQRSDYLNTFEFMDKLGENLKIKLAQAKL

Structures are written as SMILES. Only a part is listed here, and it is no random draw. The source made the active and inactive calls. Rule as the data show it: active = inhibition above about 34%; inconclusive = no clear call, values can overlap the other calls; inactive = below about 11%.

The target of this test is Isocitrate dehydrogenase [NADP] cytoplasmic (Homo sapiens) (UniProt O75874). The experiment in a line: PubChem AID 624101.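 Also: 0% = DMSO and 100% = no enzyme.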 The note with it: IDH1 R132H reductase, diaphorase/resazurin fluorescence, 60 min; at 10 µM; active compounds read high. For orientation: The colour change of resazurin is a common sign of viable cells or microbes.
Consider `CN(C(=O)Cc1ccc(Cl)c(Cl)c1)C1CCCCC1N1CCCC1` (configuration not stated), for which the inhibition (in general, the relative decrease from the control value, in per cent) is inactive: -0.583%.
Take `CN(C(=O)Cc1ccc(Cl)c(Cl)c1)[C@H]1CCCC[C@@H]1N1CCCC1`: the inhibition is inactive: -0.168%.
